Binding of CDR-mutated scFvs to a peptide of the spike HR2 region

Target peptide (SARS-CoV-2 spike, HR2 region): PDVDLGDISGINAS

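The starting antibody came from a phage panning campaign against this peptide. Library AAYL52 holds single substitutions and randomly drawn double and triple substitutions in the CDRs. AlphaSeq pools MATa yeast showing the antibodies with MATalpha yeast showing the peptide. After mating in shaken culture at 30 °C for 16 h, diploids were selected and their barcode pairs sequenced. Each replicate has its own calibration line, from reference interactions of the BCL2 family. Each pool was mated in three replicate cultures.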

The variants keep the heavy chain, the linker and the frameworks of Ab-95 (scFv order VH, three GGGGS repeats, VL).
VH: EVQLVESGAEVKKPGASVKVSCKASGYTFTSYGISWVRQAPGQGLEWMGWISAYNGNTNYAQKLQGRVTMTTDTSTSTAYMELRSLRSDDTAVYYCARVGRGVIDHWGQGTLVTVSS
VL: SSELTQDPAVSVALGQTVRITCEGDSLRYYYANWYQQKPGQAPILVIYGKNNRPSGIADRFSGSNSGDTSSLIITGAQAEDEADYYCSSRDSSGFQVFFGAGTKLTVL

Each variant is given by its three light chain CDRs, as the data file delimits them; those of the parent are EGDSLRYYYAN, GKNNRPS, SSRDSSGFQVF.
All variants listed here change G24 of the VL, counted from its first residue.
Each Kd is an estimate from the mating assay, the geometric mean of the replicates in which the pair was seen; lower is stronger.
"nd" marks a missing value. The strain was present, yet no cells mated with the target were sequenced in any replicate, which points to weak or no binding.
Entries are sorted by rising average, undetected variants last.
In this assay the parent's reference entry averaged 200 nM; its copy inside this library read 180 nM.
Empty control strains, which show no peptide, gave a signal in 28% of pairings with library AAYL52; the median was 8.2 µM and 95% of these signals were weaker than 800 nM. No background was subtracted.

The variant ESDSLRYNYAN / GKNNRPS / SSRDSSGFAVF showed 24 nM (3 of 3 replicates). For PRDSLRDYYAN / GKNNRPS / SSRDSSGFQVF, the assay gave 47 nM (3 of 3 replicates). The variant EADSLRYYTAN / GKNNRPS / SSRDSSGFQTF showed 580 nM (3 of 3 replicates). For EHDSLRYYRAN / GKNNRPS / CSRDSSGFQVF, the assay gave 580 nM (3 of 3 replicates). The variant EPDSLFYWYAN / GKNNRPS / SSRDSSGFQVF gave 630 nM (3 of 3 replicates). The variant EHDSLRYYYAN / GKNNRPS / SSRFSSGFQIF showed 890 nM (3 of 3 replicates). With EKDSKRYFYAN / GKNNRPS / SSRDSSGFQVF the result was 1.3 µM (3 of 3 replicates).

With EDDSLRLYYAN / GDNNRPS / SSRDSSGFQVF the result was 1.4 µM (3 of 3 replicates). With NDDSLRYYYAN / GKNNRPS / SSRDVSGFQVF the result was 1.4 µM (3 of 3 replicates). The variant ERDSLHYYYAN / GKNNRPS / SSRDSSGFQVV gave 1.8 µM (3 of 3 replicates). The variant EQDSLRYWYAN / GKNNRPS / SSRDSSGFQVW showed 1.8 µM (3 of 3 replicates). With EHSSLRYYYAN / GKNNRKS / SSRDSSGFQVF the result was 1.9 µM (2 of 3 replicates). The variant ELDSLRYYYAN / GKNNRPS / MSRDVSGFQVF gave 2.0 µM (3 of 3 replicates). With ERDSLRYYYAN / GKNNQPS / SSYDSSGFQVF the result was 2.4 µM (1 of 3 replicates).

The variant FVDSLRYYYAN / GKNNRPS / SSRDSSGFQVF showed 2.8 µM (3 of 3 replicates). With EYDSLRYYYAN / GKNNRPS / SSRESSGFDVF the result was 3.1 µM (2 of 3 replicates). The variant EDDSLRQYYAN / GKNNRPS / SSRDSSGFQGF gave 3.1 µM (2 of 3 replicates). The variant EPDSLRYYYFN / GKNNRPS / SSRDGSGFQVF showed 3.5 µM (2 of 3 replicates). The variant EKLSLRYYYAN / GKNNRPS / SGRDSSGFQVF showed 4.0 µM (3 of 3 replicates). For EFDSLRYYYAN / GKNNRPS / SSRDSSGHQVF, the assay gave 4.4 µM (3 of 3 replicates). With EHDSLRYYYAD / GANNRPS / SSRDSSGFQVF the result was 4.8 µM (3 of 3 replicates).

The variant EFDSLRYYYAN / GKNNRPS / SSRDSFGNQVF showed 5.8 µM (3 of 3 replicates). With EVDSLRYIYAY / GKNNRPS / SSRDSSGFQVF the result was 6.5 µM (3 of 3 replicates). With ESDDLRYYYAN / MKNNRPS / SSRDSSGFQVF the result was 7.4 µM (2 of 3 replicates). With EWDSLRYYYAN / GKNNRDS / SSRDSSGFQVF the result was 7.4 µM (2 of 3 replicates). For EYRSLRYYYAN / GKNNFPS / SSRDSSGFQVF, the assay gave 8.7 µM (2 of 3 replicates). The variant EQDSLRYYYAN / WKNNRPS / SSRDSSGFQVF gave 9.1 µM (2 of 3 replicates). With EFDSLRYYYAN / GKNNRPS / SSDDSSGHQVF the result was 9.4 µM (1 of 3 replicates).

The variant ESDSLRYYYAN / GKNNRPW / SSPDSSGFQVF gave 13 µM (1 of 3 replicates). The variant ERDSLRYYYAN / GKNNRPW / SSRDQSGFQVF gave 17 µM (1 of 3 replicates). For EFLSLRYYYAN / GKNNRPS / SSRDSSGFQVF, the assay gave 19 µM (2 of 3 replicates). The variant EVDSLRYYYAN / CKNNRYS / SSRDSSGFQVF showed 20 µM (1 of 3 replicates). The variant EVDSLRYYYAN / GKNNRPS / SSRDSSGCQVV gave 28 µM (1 of 3 replicates). The variant EDDSLGYYYAN / GKNNRPS / GSRDSSGFQVF gave 28 µM (2 of 3 replicates). The variant ERDSLRYYYAN / GKNNRVS / LSRDSSGFQVF gave 30 µM (3 of 3 replicates).

For EPDSLRYYYAG / GKNNRPS / SPRDSSGFQVF, the assay gave 32 µM (2 of 3 replicates). With EWDSLRYYYAN / GKVNRPS / SSRDSSGFQNF the result was 45 µM (2 of 3 replicates). For EYDSLRYYYAT / TKNNRPS / SSRDSSGFQVF, the assay gave 49 µM (1 of 3 replicates). The variant EQQSLRYYYYN / GKNNRPS / SSRDSSGFQVF showed 61 µM (1 of 3 replicates). With ENMSLRYYYAN / GHNNRPS / SSRDSSGFQVF the result was 91 µM (1 of 3 replicates). With ECDSLRYYYAP / WKNNRPS / SSRDSSGFQVF the result was 160 µM (1 of 3 replicates). The variant EEDSLRYYYAN / GKNNRPS / SSRDSSGFQVF gave 220 µM (2 of 3 replicates).

The variant ICDSLRYYYAN / GKNPRPS / SSRDSSGFQVF gave 420 µM (1 of 3 replicates). For EIDSLRYYYAN / GKNNRPS / SSRDSSGFQVN, the assay gave nd (0 of 3 replicates). For ECDSLRYYYAN / GKNNRPS / HSRDSSGFQSF, the assay gave nd (0 of 3 replicates). With EADSLRYYYAN / GWNNRHS / SSRDSSGFQVF the result was nd (0 of 3 replicates). The variant EIDSLRYYYAN / GKTNRPS / SMRDSSGFQVF showed nd (0 of 3 replicates). The variant EQDSLRYYYAN / LKNNRPS / SSRDSSGFQVF gave nd (0 of 3 replicates).

From the list, the first 3 with no signal in any replicate:

Variant EIDSLRYYYAN / GKNNRPS / SSRDSSGFQVN gave nd (0 of 3 replicates).
Variant ECDSLRYYYAN / GKNNRPS / HSRDSSGFQSF gave nd (0 of 3 replicates).
Variant EADSLRYYYAN / GWNNRHS / SSRDSSGFQVF gave nd (0 of 3 replicates).

The measurements come from Engelhart et al. 2022 (doi:10.1038/s41597-022-01779-4) through the FLAb antibody collection.